The chains behind the UniProt entries cited, without tags or fusion partners.
UniProt Q92918, whole entry: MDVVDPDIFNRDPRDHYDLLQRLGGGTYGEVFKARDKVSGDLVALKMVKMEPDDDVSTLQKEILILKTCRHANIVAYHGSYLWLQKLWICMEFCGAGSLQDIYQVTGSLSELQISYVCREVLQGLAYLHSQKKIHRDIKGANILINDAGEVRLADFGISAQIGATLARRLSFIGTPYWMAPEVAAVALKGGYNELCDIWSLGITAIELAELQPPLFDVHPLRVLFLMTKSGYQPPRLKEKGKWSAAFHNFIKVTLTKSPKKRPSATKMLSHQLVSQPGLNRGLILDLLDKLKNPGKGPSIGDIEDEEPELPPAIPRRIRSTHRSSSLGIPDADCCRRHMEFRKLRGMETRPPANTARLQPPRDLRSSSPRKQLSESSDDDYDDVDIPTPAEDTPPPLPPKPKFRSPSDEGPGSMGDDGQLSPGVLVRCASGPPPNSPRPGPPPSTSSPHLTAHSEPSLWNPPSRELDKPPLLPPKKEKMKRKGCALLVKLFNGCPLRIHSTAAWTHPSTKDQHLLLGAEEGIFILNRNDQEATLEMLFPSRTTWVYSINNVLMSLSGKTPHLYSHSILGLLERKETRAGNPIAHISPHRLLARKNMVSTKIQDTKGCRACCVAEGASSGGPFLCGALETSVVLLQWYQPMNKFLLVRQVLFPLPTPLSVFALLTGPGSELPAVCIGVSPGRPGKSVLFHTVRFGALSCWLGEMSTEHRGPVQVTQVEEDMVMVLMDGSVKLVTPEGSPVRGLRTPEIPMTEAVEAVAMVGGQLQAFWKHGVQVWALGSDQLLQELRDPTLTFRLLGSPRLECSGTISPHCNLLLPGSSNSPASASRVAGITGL

According to patent US20250236619A1, “FUSED BICYCLIC COMPOUND CONTAINING PYRROLINONE” (CHIA TAI TIANQING PHARMACEUTICAL GROUP CO., LTD., priority 2022, published 2025):

Assays:
[1] = system: p-SLP76 phosphorylation of Jurkat cells; experiment: Assay for inhibitory activity against p-SLP76 phosphorylation of Jurkat cells; conditions: read-out: IC50 (nM) for inhibition of p-SLP76 phosphorylation of Jurkat cells, stimulator CD3CD28, 30 min
Protocol: 2.1 Assay for Inhibitory Activity Against p-SLP76 Phosphorylation of Jurkat Cells
Jurkat cells in a good growth state were added to a centrifuge tube, centrifuged, and resuspended. The cell density was adjusted to 6.25×10^6 cells/mL, and the cells were seeded in a 384-well small-volume white plate at […]. Different compounds dissolved in DMSO were added to the wells using a nanoliter pipettor to obtain final concentrations of the compounds of 2500 nM to 10.29 nM, and a control was set; the wells were set in duplicate. After 1 h of cell culture, the stimulator CD3CD28 (manufacturer: stemcell, 4 μL) was added and the cells were incubated at 37° C. for 30 min. 3 μL of lysis buffer (manufacturer: BioAuxilium) was added to each well, and the plate was shaken at room temperature for 30 min. After the lysate was well mixed, 5 μL of pre-mixed antibody (manufacturer: BioAuxilium) in assay buffer was added and the plate was incubated overnight at room temperature. The signal values were measured on a PerkinElmer Envision multimode microplate reader (excitation: 320 nm, emission: 615 nm/665 nm), and IC50 was calculated by four-parameter filling.

[2] = biological target: HPK1 kinase (Homo sapiens (Human), UniProt Q92918); experiment: Assay for in vitro inhibitory activity against HPK1 kinase; conditions: read-out: IC50 (nM) for in vitro inhibitory activity against HPK1 kinase; HPK1 1 ng/μL, ATP 1 mM, STK Substrate 1-biotin 500 nM
Protocol: Experimental Example 1: Assay for In Vitro Inhibitory Activity Against HPK1 Kinase A kinase buffer (Enzymatic buffer 5×) was diluted to 1×, and 10 mM MgCl2, 1 mM DTT, and 0.005% Tween 20 were added. A 100 ng/μL HPK1 (Life technology) stock solution was diluted with the kinase buffer to obtain a 1.67×, 1.67 ng/μL working solution (final concentration: 1 ng/μL), and the working solution was seeded in a 384-well plate at 6 μL/well. Different compounds dissolved in DMSO were added to the wells using a nanoliter pipettor to obtain final concentrations of the compounds of 1000 nM to 0.244 nM (4-fold serial dilution, 7 concentrations in total), and blank control wells (without enzyme) and negative control wells (with enzyme, plus vehicle DMSO) were set; the wells were set in duplicate. After the enzyme and the compounds were incubated at room temperature for 1 h, a 5×, 5 mM ATP dilution (final concentration: 1 mM) in the kinase buffer was mixed with a 5×, […] substrate (Cisbio, STK Substrate 1-biotin; final concentration: 500 nM) in equal volume, and the mixture was added to the plate at 4 µL/well. The plate was sealed with a film and then incubated at room temperature for 2 h. […] The signal values (excitation: […]) were measured using a PE Envision multimode microplate reader, and IC50 was calculated by four-parameter fitting.

SMILES	IC50 [1]	IC50 [2]
CN(C)Cc1nc(Nc2ccc(-c3cnc4ccc5c(n34)CCC5)c3c2C(=O)NC3)ccc1C1CCOCC1	< 50 nM	
CN(C)Cc1nc(Nc2ccc(-c3cnn4ccc5c(c34)CCO5)c3c2C(=O)NC3)ccc1C1CCOCC1	< 50 nM	
[2H]C([2H])(c1nc(Nc2ccc(-c3ccnc4c3c3c(n4C)CCC3)c3c2C(=O)NC3)ccc1C1CCOCC1)N(C)C	50 to 100 nM	
CN(C)Cc1nc(Nc2ccc(-c3cnn4ccc5c(c34)CCO5)c3c2C(=O)NC3)ccc1C1CCN(C)C(=O)C1 (stereo not shown)	< 50 nM	3.4 nM
CNCc1nc(Nc2ccc(-c3cnn4ccc5occc5c34)c3c2C(=O)NC3)ccc1C1CCOC1 (stereo not shown)	< 50 nM	2.3 nM
